Laboratory results reported in patent publication US11026914B2, “Use of dianhydrogalactitol and analogs and derivatives thereof to treat recurrent malignant glioma or progressive secondary brain tumor” (DelMar Pharmaceuticals, Inc., priority 2013, dated 2021).

Conditions: in vivo

Question: For O[C@H]([C@H](O)[C@@H]1CO1)[C@H]1CO1 [dianhydrogalactitol], which DLT is on record?
Answer: Its DLT is “None”.
